pIC50: −log10 of the molar value. Structures can show the parent of a compound that is named as a salt. Where two headings read alike, the source gives them in different places.
Target: hNav1.1 channel (Homo sapiens, UniProt P35498)
Experiment: Block of cloned hNav1.1 channel expressed in CHO cells (IonWorks Quattro)
Details: hNav1.1, CHO cells
[1] = IC50 10 Hz block, frequency-dependent block at 10 Hz
[2] = IC50 Inactivated state, inactivation state block
[3] = read-out: IC50 10 Hz block, frequency-dependent block at 10 Hz
[4] = read-out: IC50 Inactivated state, inactivation state block
[5] = read-out: IC50 Tonic block, tonic block

Row | SMILES | pIC50 [1] | pIC50 [2] | pIC50 (IC50 Tonic block, tonic block) | pIC50 [3] | pIC50 [4] | pIC50 [5]
1 | Cc1cccc(C)c1OCC(C)NC(=O)CNC(=N)N (stereo not drawn) [Mexiletine-glycocyamine amide, Mexiletine-Glycocyamine Amide Hydrochloride] | < 3.00 | 3.30 | < 3.00 |  |  | 
2 | Cc1cccc(C)c1OCC(C)NC(=O)C(N)CCCNC(=N)N(C)C.Cl.Cl (mixture of isomers) [Mexiletine-(S)—N,N-Dimethylarginine Amide Dihydrochloride] |  |  |  | < 3.00 | < 3.00 | < 3.00
3 | CSC[C@H](N)C(=O)NC(C)COc1c(C)cccc1C (stereo partly drawn) [Mexiletine [(R)-S-methyl-cysteine] amide] | 4.42 | 4.88 | 4.00 |  |  | 
4 | Cc1cccc(C)c1OCC(C)NC(=O)[C@@H](N)C(C)(C)O (stereo partly drawn) [Mexiletine [^α-hydroxy-(5)-valine] amide, Mexiletine [β-hydroxy-(S)-valine] amide] |  |  |  | < 3.00 | 3.46 | < 3.00
5 | Cc1cccc(C)c1OCC(C)NC(=O)[C@@H](N)COC(N)=O (stereo partly drawn) [Mexiletine [O-carbamoyl-(S)-serine] amide] | 3.90 | 4.90 | 3.31 |  |  | 
6 | Cc1cccc(C)c1OCC(C)NC(=O)c1ccc(N)cc1 (racemic) [Mexiletine-PABA amide Hydrochloride] |  |  |  | 4.20 | 4.68 | 3.89
7 | Cc1cccc(C)c1OCC(C)NC(=O)Oc1ccc(C(=O)O)cc1 (stereo not drawn) [Mexiletine-PHBA carbamate] |  |  |  | 4.51 | 4.78 | 3.88
8 | Cc1cccc(C)c1OCC(C)NC(=O)Cc1c[nH]c2ccccc12 (stereo not drawn) [Mexiletine (indole-3-acetic acid) amide] | < 4.52 | 5.25 | < 4.52 |  |  | 
9 | Cc1cccc(C)c1OCC(C)NC(=O)[C@@H](N)Cc1ccc(O)cc1 (stereo partly drawn) [Mexiletine (S)-tyrosine amide] | 5.53 | 5.78 | 4.87 |  |  | 
10 | Cc1cccc(C)c1OCC(C)NC(=O)[C@@H](N)CC(N)=O (stereo partly drawn) [Mexiletine-(S)-asparagine amide] | 3.21 | 3.72 | < 3.00 |  |  | 
11 | Cc1cccc(C)c1OCC(C)NC(=O)[C@@H](N)CCCCN.O=C(O)C(F)(F)F.O=C(O)C(F)(F)F (mixture of isomers) [Mexiletine (S)-lysine amide, (Rac)-Mexiletine-(S)-Lysine Ditrifluoroacetate] |  |  |  | < 3.00 | 3.06 | 3.07
12 | Cc1cccc(C)c1OCC(C)NC(=O)CNCC(=O)O (stereo not drawn) [Mexiletine (carboxymethyl-glycine) amide, Mexiletine (Carboxymethyl-Glycine) Amide Hydrochloride] | < 3.00 | < 3.00 | < 3.00 |  |  | 
13 | Cc1cccc(C)c1OCC(C)NC(=O)[C@@H](N)C[S+](C)[O-].O=C(O)C(F)(F)F (stereo partly drawn) [Mexiletine [(R)-S-methyl-cysteine, Mexiletine [(R)—S-Methyl-Cysteine Sulfoxide] Amide Trifluoroacetate] |  |  |  | 3.00 | 3.70 | < 3.00
14 | CNC(=N)NCCC[C@H](N)C(=O)NC(C)COc1c(C)cccc1C (stereo partly drawn) [Mexiletine (S)-N-methylarginine amide, Mexiletine-(S)—N-Methylarginine Amide Dihydrochloride] | < 3.00 | < 3.00 | < 3.00 |  |  | 
15 | Cc1cccc(C)c1OCC(C)NC(=O)CCc1c[nH]cn1 (racemic) [Mexiletine dihydrourocanic acid amide] |  |  |  | 3.20 | 3.92 | < 3.00
16 | CSCC[C@H](N)C(=O)NC(C)COc1c(C)cccc1C (stereo partly drawn) [Mexiletine methionine amide, Mexiletine-(S)-Methionine Amide Hydrochloride] | 5.28 | 5.89 | 4.59 |  |  | 
17 | Cc1cccc(C)c1OCC(C)NC(=O)[C@@H](N)CC(=O)O (stereo partly drawn) [Mexiletine-(S)-aspartic acid amide, Mexiletine-(S)-Aspartic Acid Amide Hydrochloride] | < 3.00 | < 3.00 | < 3.00 |  |  | 
18 | Cc1cccc(C)c1OCC(C)NC(=O)[C@@H](N)Cc1c[nH]c2ccccc12 (stereo partly drawn) [Mexiletine (S)-tryptophan amide] | 6.01 | 6.12 | 5.93 |  |  | 
19 | Cc1cccc(C)c1OCC(C)NC(=O)c1ccc(N)cc1O (stereo not drawn) [Mexiletine (4-aminosalicylic acid) amide] | 3.95 | 4.53 | 3.88 |  |  | 
20 | Cc1cccc(C)c1OCC(C)NC(=O)C=Cc1c[nH]cn1 (stereo not drawn) [Mexiletine (urocanic acid) amide] |  |  |  | 3.37 | 3.60 | < 3.00
21 | Cc1cccc(C)c1OCC(C)NC(=O)c1ccc(N)s1 (stereo not drawn) [Mexiletine (5-aminothiophene-2-carboxylic acid) amide] | 4.15 | 5.20 | 3.74 |  |  | 
